Only a part is listed here, and it is no random draw. Some tests of the compounds listed are not included; inactive here does not mean inactive elsewhere. The source made the active and inactive calls.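 Rule for the calls: active = inhibition above 20%; inactive = inhibition below 20%.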
Test: clotrimazole potentiators killing Candida biofilms, primary screen, with clotrimazole, Alamar Blue (AID 834);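 note: preformed 24 hr biofilms exposed to compound for 48 hr; 0% = biofilm without compound and 100% = blank killed by clotrimazole plus chlorhexidine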
Details: C. albicans biofilm + clotrimazole, at 6 µM, stronger effect = higher value
In the case of `O=C(OC1CN2CCC1CC2)C(CO)(c1ccccc1)c1ccccc1` (configuration not stated), the inhibition is reported as inactive: 8.54%.
With `CN(C)c1cccc(C(=O)NCC2(N(C)C)CCCCC2)c1` the inhibition was inactive: 6.64%.
